High-throughput results from PubChem.
Shown are actives, neighbours in structure and some others; about 1.1% of the full set was active somewhere.
TrxR1 inh: rat TrxR1 inhibition. recombinant rTrxR1, NADPH fluorescence consumption, selenite substrate. Potency, µM (series often up to 114 µM), for the others: top-dose activity change, negative = inhibition, most hits filed as inhibitors. 1% of 390,000 active; further: potency means the concentration at half of the fitted maximal effect; on the % scale 0 is the no-effect control and ±100 the full control effect; nearly all actives have a fitted effect of over 65% in size
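Rat TrxR1 (90 nM in the dispensed reagent) was pre-reduced with 400 uM NADPH for 5 min at room temperature, then incubated with compound for 15 min. After 400 uM selenite was added, NADPH fluorescence (Ex 340/Em 450 nm) was followed for 8 min.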
miR-21 reporter: miR-21 reporter, rising signal | HeLa miR-21 FLuc reporter, luciferase, 48 h | Potency, µM (doses to about 38.3 µM), inactives show at the top dose reporter change, positive = more light | 340,000 tested, under 10 active | AID 2288; active = well fitted rising curve with a large enough effect; inconclusive = small, poorly fitted or top-dose-only effect; inactive = no such curve, though single readings can be large or run the other way;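 note: % of control where 0% means no effect; miR-21 action dims this reporter so a rising signal means less miR-21 action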
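Luminescence from a firefly luciferase reporter carrying a miR-21 binding site downstream, stably expressed under a CMV promoter in HeLa cells that make miR-21 endogenously, reports miRNA modulation after 48 h compound exposure up to approximately 40uM final.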
GALK inhibitor: blocks human galactokinase activity; P51570; Purified GALK, Kinase-Glo residual ATP luminescence; Potency, µM (titrated, usually from 57.5 µM), without a hit: at the top dose activity change, negative = inhibition, usual class: inhibitors; 0.007% of 270,000 active; further: potency means the concentration at half of the fitted maximal effect; on the % scale 0 is the no-effect control and ±100 the full control effect
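Kinase-Glo Plus luminescence measured ATP left after a 1 h room-temperature reaction. The reaction used 5 nM GALK, 100 uM galactose and 35 uM ATP at pH 8.0 (20 mM HEPES, 5 mM MgCl2, 60 mM NaCl, 1 mM DTT, 0.01% BSA).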
TrxR1 substrate: substrates of rat thioredoxin reductase 1; Potency, µM (titrated, usually from 114 µM), for inactives: top-dose activity change, negative = substrate turnover; AID 588456; 0.01% of 390,000 active; O89049; purified TrxR1 substrate turnover, NADPH consumption readout; further: potency means the concentration at half of the fitted maximal effect; on the % scale 0 is the no-effect control and ±100 the full control effect; nearly all actives have a fitted effect of over 50% in size
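Rat TrxR1, dispensed at 90 nM, was prereduced with 400 uM NADPH (final) for 5 min at ~22 deg C, then incubated with compound 15 min before 400 uM selenite. A first-read NADPH fluorescence drop versus no-compound background flagged substrates.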
PINK1 modulator: PINK1 expression modulation; 0.2% of 410,000 active; Potency, µM (titrated, usually from 76.6 µM), without a hit: at the top dose activation (PINK1 increase), hits mostly activators; AID 624263; PINK1 immunofluorescence, high-content cytometry, 24 h; active means well fitted activation curve with a large enough effect; inconclusive means small, poorly fitted or top-dose-only effect; cell line not stated here; further: potency means the concentration at half of the fitted maximal effect; % of control where 0% means no effect; nearly all actives have a fitted effect of over 65% in size
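A stable cell line was treated with compounds at 5 concentrations for 24 hours, with CCCP as control. PINK1 levels and mitochondrial localization were measured by immunofluorescence with mitochondrial, cell and nuclear markers after fixation, read by laser-scanning cytometry.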
Active calls of the source: *; i = inactive; u = inconclusive; x = not tested or not shown; [ ] = dose if it differs, or a comment. Unless noted, the call rests on the fitted dose curve; in most records, active means well fitted curve in the direction sought with a large enough effect; inconclusive means small, poorly fitted or top-dose-only effect, or another doubt; inactive means no such curve, though single readings can be large; an effect the other way counts as inactive or inconclusive.

TrxR1 inh | miR-21 reporter | GALK inhibitor | TrxR1 substrate | PINK1 modulator | molecule
u | u | 0% | 12%[57.1 µM] | 2% | Cc1ccccc1N1C(=O)CC(Sc2nnc(-c3ccccc3)o2)C1=O (stereo not drawn)
7.1µM* | u | 1% | -1% | -1% | O=C1CC(Sc2nnc(-c3ccccc3)o2)C(=O)N1c1ccccc1 (stereo not drawn)
79µM* | -5% | -2% | 569% | 1% | CCCCn1nc(C(=O)Oc2ccc3c(C)cc(=O)oc3c2)c2ccccc2c1=O
40µM* | -11% | -4% | 263% | -2%[38.3 µM] | Cc1cc(=O)oc2cc(OC(=O)CCN3C(=O)c4ccccc4C3=O)ccc12
15% | -5% | 4% | 7% | -1% | Cc1cc(=O)oc2cc(OCCCN3C(=O)c4ccccc4C3=O)ccc12
22µM* | -13% | 2% | -3% | 6%[38.3 µM] | CN(C)/C=C1/C=C(c2ccccc2)OC1=O
12% | -1% | x | -4% | 10% | Cc1cc2n(n1)CCC(=O)N2Cc1ccc(C(=O)Nc2ccc(Br)c(C)c2)cc1
-13% | x | x | -3% | 0% | Cc1ccc(C)c2c(/C=C/c3ccc(N(C)C)cc3)ccnc12
22µM* | -1% | 8% | -14% | -2% | Cc1ccc(/C=[N+](\[O-])c2ccc(N(C)C)cc2)c2nsnc12
15%[57.1 µM] | 9% | x | -5%[57.1 µM] | 0% | Cc1ccccc1CN1C(=O)c2ccccc2Sc2ccc(C(=O)NCCc3ccccc3)cc21
8% | 3% | x | -5% | -1% | CCS(=O)(=O)N1CC(=O)N(c2ccc(Cl)cc2)C(C)(C(=O)NC2CCCCC2)C1 (stereo not drawn)
45µM* | -32% | 1% | 3% | 0% | COc1ccccc1N1CCN(C(=O)c2cc(-c3ccco3)on2)CC1
9%[57.1 µM] | -61% | 1% | 4%[57.1 µM] | 5% | O=C(c1cc(-c2ccccc2O)on1)N1CCc2ccccc2C1
32µM* | -28% | 1% | -8% | 3%[38.3 µM] | O=C(c1cc(-c2ccco2)on1)N1CCc2ccccc2C1
13% | -10% | 0% | -2% | 1% | COc1ccccc1N1CCN(C(=O)c2cc(-c3ccccc3)on2)CC1
9% | 4% | x | -2% | 2% | CCc1ccc(C(=O)c2cn(CC(=O)Nc3ccc(OC)c(OC)c3)c3ccc(C)cc3c2=O)cc1
35µM* | 0% | 1% | 4% | 1% | COc1ccc(S(=O)(=O)Cc2ccc(C(=O)N3CCOCC3)o2)cc1
u | 2% | 2% | 5% | 3% | O=C(c1ccc(CS(=O)(=O)c2ccc(Br)cc2)o1)N1CCOCC1
56µM* | -21% | 2% | 1% | 3%[38.3 µM] | c1ccc(OCc2nn3c(-c4ccco4)nnc3s2)cc1
22µM* | -9% | -12% | -14% | -4% | Cc1ccc(/C=C2\SC(=S)N(/N=C/c3cc([N+](=O)[O-])ccc3O)C2=O)o1
0.32µM* | u | x | 4% | 0% | CC(C)CS(=O)(=O)c1oc(-c2ccc(F)cc2)nc1S(=O)(=O)c1ccccc1
0.71µM* | u | x | 16% | -1% | CCC(C)S(=O)(=O)c1oc(-c2cccs2)nc1S(=O)(=O)c1ccccc1 (stereo not drawn)
x | x | x | x | 23% | c1ccc(CNc2nc(-c3ccc4c(c3)OCO4)nc3ccccc23)cc1
79µM* | x | x | 4% | 3% | O=C1C=CC(=O)N1Cc1cccnc1
13% | -21% | x | 33% | 0% | CCCn1c(=O)n(-c2ccccc2Cl)c(=O)c2sc3ccccc3c21
23%[11.4 µM] | 11% | 2% | 4%[11.4 µM] | 35µM* | Cn1c(N/N=C/c2cc3ccccc3nc2Cl)nc2ccccc21
22% | -8% | x | 7% | 12% | CCS(=O)(=O)N1N=C(c2ccc(C)cc2)CC1c1cc2ccc(OC)cc2nc1Cl (stereo not drawn)
50µM* | -5% | -2% | 1% | 3% | COc1ccc2cc(C3CC(c4ccco4)=NN3S(C)(=O)=O)c(Cl)nc2c1 (stereo not drawn)
u | 0% | -3% | 4% | -2% | COC(=O)C1=C(C)N(c2cccc(Cl)c2)C(=O)C1
14µM* | -2% | 0% | 7% | 0% | COC(=O)C1=C(C)N(c2ccc(F)c(Cl)c2)C(=O)C1
x | x | x | x | 0% | CCOC(=O)C1CCCN(C(=O)c2cnn(-c3ncc4c(n3)-c3ccccc3CC4)c2C)C1 (stereo not drawn)
4µM* | 23% | 0% | 11%[11.4 µM] | -1% | Cn1cnc([N+](=O)[O-])c1Oc1ccc2ccccc2c1
0% | x | x | -10% | 16µM* | Cc1onc(-c2c(F)cccc2Cl)c1C(=O)Nc1cc(S(=O)(=O)N2CCCCC2)ccc1O
12% | x | x | 1% | 0% | Cc1onc(-c2c(F)cccc2Cl)c1C(=O)Nc1ccc(S(=O)(=O)N2CCOCC2)cc1
22µM* | -6% | 2% | i | 6% | CCc1c(C)c2ccc(O)c(CN3CCCC3)c2oc1=O
56µM* | x | x | i | 0% | Cc1cc(=O)oc2c(CN3CCOCC3)c(O)ccc12

Three compounds out of the list, arranged by number of heavy atoms, lowest first:
TrxR1 inh | miR-21 reporter | GALK inhibitor | TrxR1 substrate | PINK1 modulator | molecule
u | 0% | -3% | 4% | -2% | COC(=O)C1=C(C)N(c2cccc(Cl)c2)C(=O)C1
23%[11.4 µM] | 11% | 2% | 4%[11.4 µM] | 35µM* | Cn1c(N/N=C/c2cc3ccccc3nc2Cl)nc2ccccc21
22% | -8% | x | 7% | 12% | CCS(=O)(=O)N1N=C(c2ccc(C)cc2)CC1c1cc2ccc(OC)cc2nc1Cl (stereo not drawn)

The list continues.
TrxR1 inh | miR-21 reporter | GALK inhibitor | TrxR1 substrate | PINK1 modulator | molecule
15% | 2% | x | -3% | -2% | O=C(CSc1ncc(S(=O)(=O)c2ccc(Cl)cc2)c(=O)[nH]1)Nc1ccc2c(c1)OCCO2
3% | -7% | x | 5% | 1% | CCCCN(C)CCCNC(=O)Cn1nc(CC)n2c(cc3sc(C)cc32)c1=O
16%[57.1 µM] | 8% | 0% | 1% | 14µM* | Cc1cc(C)nc(NC(=NCc2ccc3c(c2)OCO3)NC(=O)Nc2ccccc2)n1
11µM* | 20% | x | -1% | -1% | O=[N+]([O-])c1cc(Br)c(Nc2ccccc2)c([N+](=O)[O-])c1
2.8µM* | u | 1% | -2% | -2% | CCOC(=O)COc1ccccc1/C=C\[N+](=O)[O-]
u | x | x | -6% | 0% | Cc1ccc(C(=O)COC(=O)COc2ccccc2[N+](=O)[O-])s1
25µM* | -23% | -2% | 0% | 0% | O=c1oc2ccccc2c(N2CCCCC2)c1CN1CCCCC1
0.11µM* | -2% | 2% | 4% | 4%[38.3 µM] | CCc1oc2ccccc2c1C(=O)CCN1CCCCC1
35% | -15% | x | 6% | 6% | O=C(CSc1nc(-c2ccc(F)cc2)cc(C(F)(F)F)n1)NCc1ccccc1
32% | 3% | 2% | 25% | 11µM* | FC(F)(F)c1ccc(N2CCN(c3ncnc4c3nnn4Cc3ccccc3)CC2)nc1
4% | u | x | 2% | 0% | COc1ccc(OC)c(CCNC(=O)c2cnn(-c3ccccc3)c2-n2cccc2)c1
x | x | x | x | 0% | COCc1c(C(=O)N2CCC(N(C)C)C2)cnn1-c1ncc2c(n1)-c1ccccc1CCC2 (stereo not drawn)
7.1µM* | x | x | -14% | -1% | Cn1ncc2c(=S)nc(Cl)[nH]c21
14µM* | x | x | 10µM* | 1% | CN1N/C(=C\c2ccccc2)N=C2C(=O)N(C)C(=O)N=C21
-20% | x | x | -20% | 1% | CC/C=C1/N=C2C(=O)N(C)C(=O)N=C2N(C)N1

For convenience, part of the list above:
TrxR1 inh | miR-21 reporter | GALK inhibitor | TrxR1 substrate | PINK1 modulator | molecule
x | x | x | x | 0% | COCc1c(C(=O)N2CCC(N(C)C)C2)cnn1-c1ncc2c(n1)-c1ccccc1CCC2 (stereo not drawn)
7.1µM* | x | x | -14% | -1% | Cn1ncc2c(=S)nc(Cl)[nH]c21
14µM* | x | x | 10µM* | 1% | CN1N/C(=C\c2ccccc2)N=C2C(=O)N(C)C(=O)N=C21
